These binders were tested against T1, MT1-MMP Hemopexin domain (PEX) (UniProt P50281 319-511) (assay: FP competition, plate 1, tracer not named).
T1 construct: domain: Hemopexin domain (PEX); Target of the fluorescence polarisation assays; also called hemopexin of MT1-MMP; MMP14
ALPPCVRECALLFPKTCA (3 Cys linked to TATA scaffold, also called BCY1124) [17-120-09-T03] was tested, and the Ki was 78 nM.

What follows are binders tested against T1, MT1-MMP Hemopexin domain (PEX) (assay: FP competition vs tracer 17-88-226-N002).
Protocol: (§1) Subsequently, the non-fluorescent competitor bicyclic peptide (usually just the bicycle core sequence) is titrated, such that it displaces the fluorescent tracer from the target protein. The displacement of the tracer is measured and associated with a drop in fluorescence polarisation. The drop in fluorescence polarisation is proportional to the fraction of target protein bound with the non-fluorescent titrant, and thus is a measure of the affinity of titrant to target protein.
(§2) The raw data is fit to the analytical solution of the cubic equation that describes the equilibria between fluorescent tracer, titrant, and binding protein. The fit requires the value of the affinity of fluorescent tracer to the target protein, which can be determined separately by direct binding FP experiments (see previous section).
Binder ALPPCVRECALLFPKTCA (3 Cys linked to TATA scaffold, also called BCY1124) [17-120-09-T03] has a Kd of 32 nM. ALPPCVRECALLFPKTC (N-terminal acetyl; 3 Cys linked to TATA scaffold, also called BCY1125) [Ac-(17-120-09-T03)] was tested, and the Kd was 18.6 nM.

Each binder was assayed against T1, MT1-MMP Hemopexin domain (PEX) (assay: FP competition vs tracer 17-69-07-N041).
Source text: (§3) Here, a pre-formed complex of PEX with the fluorescent PEX-binding tracer is titrated with free, non-fluoresceinated bicyclic peptide. Since all 17-69-based peptides are expected to bind at the same site, the titrant will displace the fluorescent tracer from PEX. Dissociation of the complex can be measured quantitatively, and the Kd of the competitor (titrant) to the target protein determined. The advantage of the competition method is that the affinities of non-fluoresceinated bicyclic peptides can be determined accurately and rapidly.
as §1, §2
For ACPDLCLDLFPNCA (3 Cys linked to TATA scaffold) [17-111-01], the Kd was 1800 nM. Binder ACPELCVDLYPHCA (3 Cys linked to TATA scaffold) [17-111-02] has a Kd of 2300 nM.

Each binder was assayed against T1, MT1-MMP Hemopexin domain (PEX) (assay: FP competition, plate 2, tracer not named).
With ALPPCVRECALLFPKTCA (3 Cys linked to TATA scaffold, also called BCY1124) [17-120-09-T03] the Ki was 107 nM.

Each binder was assayed against T1, MT1-MMP Hemopexin domain (PEX) (assay: FP competition vs tracer 17-69-12-N004).
Source text: as §3, §1, §2
ACEEAFYPCHHPLYRCA (N-terminal acetyl; 3 Cys linked to TATA scaffold) [Ac-(17-126-25)] showed a Kd of 60.5 nM. CPGECFYPPGHRLYCYSE (N-terminal acetyl; 3 Cys linked to TATA scaffold) [Ac-(17-129-23-T01)] was tested, and the Kd was 8.9 nM.

Each binder was assayed against T1, MT1-MMP Hemopexin domain (PEX) (assay: FP competition vs tracer 17-88-N006).
Protocol: as §1, §2
Work on ALPPCVRECALLFPKTCA (3 Cys linked to TATA scaffold, also called BCY1124) [17-120-09-T03] yielded a Kd of 35.6 nM. For APAPCHIECALLFPKTCA (3 Cys linked to TATA scaffold) [17-120-23-T01], the Kd was 127 nM. Binder AVEPCKRECMLLFPKTCA (3 Cys linked to TATA scaffold) [17-120-24-T01] has a Kd of 126 nM. With AEPACYRECALLFPKTCA (3 Cys linked to TATA scaffold) [17-120-25-T01] the Kd was 194 nM. ASPPCLTECALLFPKTCA (3 Cys linked to TATA scaffold) [17-120-26-T01] was tested, and the Kd was 598 nM. AAPPCEVECRLLFPKTCA (3 Cys linked to TATA scaffold) [17-120-27-T01] was tested, and the Kd was 394 nM. For APPPCEAECRLLFPKTCA (3 Cys linked to TATA scaffold) [17-120-28-T01], the Kd was 192 nM. For AVPPCVQECALLFPKTCA (3 Cys linked to TATA scaffold) [17-120-29-T01], the Kd was 162 nM. SPPPCIRECSLLFPKTCA (3 Cys linked to TATA scaffold) [17-120-30-T01] was tested, and the Kd was 78.7 nM. In the case of HLPPCVTECALLFPKTCA (3 Cys linked to TATA scaffold) [17-120-31-T01], the Kd is reported as 50.2 nM. RLPPCVTECALLFPKTCA (3 Cys linked to TATA scaffold) [17-120-31-T02] showed a Kd of 68.3 nM. In the case of MPPPCVAECKLLFPKTCA (3 Cys linked to TATA scaffold) [17-120-32-T01], the Kd is reported as 63.8 nM.

These binders were tested against T2, human MT1 MMP14 protein, hemopexin domain (obtained from Merck Millipore) (human, UniProt P50281 319-511, limits assumed, randomly biotinylated (EZ-Link Sulfo-NHS-LC-LC-Biotin)) (assay: SPR, biotinylated target on streptavidin chip).
T2 construct: domain: hemopexin domain; Target of the SPR assay, captured on streptavidin; also called biotinylated MT1 MMP14
Protocol: Biacore experiments were performed to determine KD (nM) values of monomeric peptides binding to human MT1 MMP14 protein, hemopexin domain (obtained from Merck Millipore).
For analysis of peptide binding, a Biacore 3000 instrument was used utilising a CM5 chip (GE Healthcare). Streptavidin was immobilized on the chip using standard amine-coupling chemistry at 25° C. with HBS-N (10 mM HEPES, 0.15 M NaCl, pH 7.4) as the running buffer. Briefly, the carboxymethyl dextran surface was activated with a 7 minute injection of a 1:1 ratio of 0.4 M 1-ethyl-3-(3-dimethylaminopropyl) carbodiimide hydrochloride (EDC)/0.1 M N-hydroxy succinimide (NHS) at a flow rate of 10 μl/min. For capture of streptavidin, the protein was diluted to 0.2 mg/ml in 10 mM sodium acetate (pH 4.5) and captured by injecting 120 μl of streptavidin onto the activated chip surface. Residual activated groups were blocked with a 7 minute injection of 1 M ethanolamine (pH 8.5) and biotinylated MT1 MMP14 captured to a level of 1,200-1,800 RU. Buffer was changed to PBS/0.05% Tween 20 and a dilution series of the peptides was prepared in this buffer with a final DMSO concentration of 0.5%. The top peptide concentration was 100 nM with 6 further 2-fold dilutions. […]
ALPPCVRECALLFPKTCA (3 Cys linked to TATA scaffold, also called BCY1124) [17-120-09-T03] gave a Kd of 14.8 nM. With ALPPCVRECALLFPKTC (N-terminal acetyl; 3 Cys linked to TATA scaffold, also called BCY1125) [Ac-(17-120-09-T03)] the Kd was 15.1 nM.

Reference: patent US20220024982A1 (Bicycle, published 2022)
